Sequences of proteins named here, by UniProt entry; tags and fusion partners are left off.
UniProt Q99572, whole entry: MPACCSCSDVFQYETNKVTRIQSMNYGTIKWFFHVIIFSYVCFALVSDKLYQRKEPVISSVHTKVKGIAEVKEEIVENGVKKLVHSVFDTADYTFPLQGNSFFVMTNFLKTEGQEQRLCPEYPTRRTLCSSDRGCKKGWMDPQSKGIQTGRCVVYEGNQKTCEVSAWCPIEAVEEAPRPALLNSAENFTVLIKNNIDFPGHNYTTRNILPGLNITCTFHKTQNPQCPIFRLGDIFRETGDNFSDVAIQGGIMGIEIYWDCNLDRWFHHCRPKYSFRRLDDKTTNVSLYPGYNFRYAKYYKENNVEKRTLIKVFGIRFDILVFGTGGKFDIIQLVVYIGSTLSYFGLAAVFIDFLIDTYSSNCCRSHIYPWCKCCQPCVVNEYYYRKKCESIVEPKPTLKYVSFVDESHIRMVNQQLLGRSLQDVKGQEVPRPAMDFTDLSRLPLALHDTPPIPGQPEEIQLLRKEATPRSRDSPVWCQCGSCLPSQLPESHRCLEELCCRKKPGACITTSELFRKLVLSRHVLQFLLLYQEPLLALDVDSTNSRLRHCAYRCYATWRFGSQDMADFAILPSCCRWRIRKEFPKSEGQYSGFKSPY

According to US8431704B2, “Quinoline or isoquinoline substituted P2X7 antagonists” (Janssen Pharmaceutica NV, priority 2008, dated 2013):

Biological target: hP2X7 (Homo sapiens, UniProt Q99572)
Assay: P2X7 antagonism: ligand-induced Ca2+ flux in 1321N1 astrocytoma cells overexpressing hP2X7
Conditions: pIC50 = -log(IC50)

SMILES	hP2RX7pIC50 (mean pIC50 values)
CC(C)(C)OC(=O)NC1CCN(c2ccc3c(C(=O)NCC(c4cnc(C(F)(F)F)nc4)N4CCC(F)(F)CC4)cccc3n2)CC1 (centres unmarked)	6.67
O=C(NCC(c1cnc(C(F)(F)F)nc1)N1CCCC(F)(F)C1)c1cccc2nc(N3CC(O)C3)ccc12 (centres unmarked)	7.39
CCNc1ccc2c(C(=O)NCC(c3cnc(C(F)(F)F)nc3)N3CCC(F)(F)CC3)cccc2n1 (centres unmarked)	7.54
O=C(NCC(c1cnc(C(F)(F)F)nc1)N1CCOCC1)c1cccc2ncccc12 (centres unmarked)	7.4
O=C(NCC(c1cnc(C(F)(F)F)nc1)N1CCC(F)(F)CC1)c1cccc2nc(NCCO)ccc12 (single isomer, unassigned) [67]	7.44
COCCN(C)c1ccc2c(C(=O)NCC(c3cnc(C(F)(F)F)nc3)N3CCC(F)(F)CC3)cccc2n1 (centres unmarked)	7.37
O=C(NCC(c1ccc(C(F)(F)F)nc1)N1CCC(F)(F)CC1)c1ccc2ncccc2c1 (centres unmarked)	5.91
COc1ncc(C(CNC(=O)c2cccc3nc(N4CCOCC4)ccc23)N2CCC(F)(F)CC2)cn1 (centres unmarked)	7.4
O=C(NCC(c1ccc(C(F)(F)F)nc1)N1CCN(c2ccccc2)CC1)c1cccc2ncccc12 (centres unmarked)	5.17
O=C(NCC(c1cnc(C(F)(F)F)nc1)N1CCC(F)(F)CC1)c1cccc2ncccc12 (centres unmarked)	7.48
CCOc1ccc2c(C(=O)NCC(c3cnc(C(F)(F)F)nc3)N3CCC(F)(F)CC3)cccc2n1 (centres unmarked)	7.41
Cc1ccc2c(C(=O)NCC(c3cnc(C(F)(F)F)nc3)N3CCC(F)(F)CC3)cccc2n1 (centres unmarked)	7.41
O=C(NCC(c1cnc(C(F)(F)F)nc1)N1CCC(F)(F)CC1)c1cccc2nc(NC3CCC3)ccc12 (single isomer, unassigned)	7.45
CN(CCO)c1ccc2c(C(=O)NCC(c3cnc(C(F)(F)F)nc3)N3CCC(F)(F)CC3)cccc2n1 (centres unmarked)	7.37
NC1CCN(c2ccc3c(C(=O)NCC(c4cnc(C(F)(F)F)nc4)N4CCC(F)(F)CC4)cccc3n2)CC1 (centres unmarked)	7.49
Nc1ccc2c(C(=O)NCC(c3cnc(C(F)(F)F)nc3)N3CCC(F)(F)CC3)cccc2n1 (centres unmarked)	7.54
O=C(NCC(c1cccnc1)N1CCC(F)(F)CC1)c1cccc2ncccc12 (centres unmarked)	6.05
O=C(NCC(c1cnc(C(F)(F)F)nc1)N1CCC(F)(F)CC1)c1cccc2nc(NCCCO)ccc12 (single isomer, unassigned) [69]	7.47
O=C(NCC(c1cnc(C(F)(F)F)nc1)N1CCC(F)(F)CC1)c1cccc2nc(N3CCCC(O)C3)ccc12 (centres unmarked)	7.32
CC1CCCN(c2ccc3c(C(=O)NCC(c4cnc(C(F)(F)F)nc4)N4CCC(F)(F)CC4)cccc3n2)C1 (centres unmarked)	6.61
CC1CN(c2ccc3c(C(=O)NCC(c4cnc(C(F)(F)F)nc4)N4CCCC(F)(F)C4)cccc3n2)CCO1 (centres unmarked)	7.41
O=C(NCC(c1ccc(C(F)(F)F)nc1)N1CCC(F)(F)C1)c1cccc2ncccc12 (centres unmarked)	6.74
Cc1ncc(C(CNC(=O)c2cccc3ncccc23)N2CCOCC2)cn1 (centres unmarked)	5.99
Cc1ncc(C(CNC(=O)c2cccc3ncccc23)N2CCC(F)(F)CC2)cn1 (centres unmarked)	6.84

SMILES	hP2RX7pIC50 (mean pIC50 values)
O=C(NCC(c1ccc(C(F)(F)F)nc1)N1CCS(=O)(=O)CC1)c1cccc2ncccc12 (centres unmarked)	5.59
O=C(NCC(c1cnc(C(F)(F)F)nc1)N1CCC(F)(F)CC1)c1cccc2nc(NCCN3CCOCC3)ccc12 (centres unmarked)	7.42
CC(C)(C)OC(=O)N1CCN(c2ccc3c(C(=O)NCC(c4cnc(C(F)(F)F)nc4)N4CCC(F)(F)CC4)cccc3n2)CC1 (centres unmarked)	6.62
O=C(NCC(c1cnc(C(F)(F)F)nc1)N1CCC(F)(F)CC1)c1cccc2nc(NC3CC3)ccc12 (single isomer, unassigned) [143]	7.46
Cc1ncc(C(CNC(=O)c2cccc3nc(N4C[C@@H](C)O[C@@H](C)C4)ccc23)N2CCOCC2)cn1 (some centres unmarked)	6.43
O=C(NCC(c1cnc(C(F)(F)F)nc1)N1CCC(F)(F)CC1)c1cccc2nc(NC3CCOCC3)ccc12 (centres unmarked)	7.07
O=C(NCC(c1cnc(C(F)(F)F)nc1)N1CCC(F)(F)CC1)c1cccc2nc(NC[C@H]3CCCO3)ccc12 (some centres unmarked)	7.4
COCCCNc1ccc2c(C(=O)NCC(c3cnc(C(F)(F)F)nc3)N3CCC(F)(F)CC3)cccc2n1 (centres unmarked)	7.55
C[C@@H]1CN(c2ccc3c(C(=O)NC[C@H](c4cnc(C(F)(F)F)nc4)N4CCC(F)(F)CC4)cccc3n2)C[C@H](C)N1	7.21
O=C(NCC(c1cnc(C(F)(F)F)nc1)N1CCCOCC1)c1cccc2nc(NC3CCOCC3)ccc12 (centres unmarked)	6.81
O=C(NCC(c1cnc(C(F)(F)F)nc1)N1CCC(F)(F)CC1)c1cccc2nc(NCCO)ccc12 (single isomer, unassigned) [68]	7.33
CCOCCNc1ccc2c(C(=O)NCC(c3cnc(C(F)(F)F)nc3)N3CCC(F)(F)CC3)cccc2n1 (centres unmarked)	7.47
O=C(NCC(c1cnc(C(F)(F)F)nc1)N1CCCCCC1)c1cccc2nc(NCCO)ccc12 (centres unmarked)	7.49
O=C(NCC(c1cnc(C(F)(F)F)nc1)N1CCC(F)(F)CC1)c1cccc2nc(NCc3ccccc3)ccc12 (centres unmarked)	7.2
O=C(NCC(c1cnc(C(F)(F)F)nc1)N1CCCCCC1)c1cccc2nc(N3CC(O)C3)ccc12 (centres unmarked)	7.44
CN(C)c1ccc2c(C(=O)NCC(c3cnc(C(F)(F)F)nc3)N3CCC(F)(F)CC3)cccc2n1 (centres unmarked)	7.46
O=C(NCC(c1ccc(C(F)(F)F)nc1)N1CCC(F)(F)CC1)c1cnc2ccccc2c1 (centres unmarked)	7.03
COCCNc1ccc2c(C(=O)NCC(c3cnc(C(F)(F)F)nc3)N3CCC(F)(F)CC3)cccc2n1 (centres unmarked)	7.41
CNc1ccc2c(C(=O)NCC(c3cnc(C(F)(F)F)nc3)N3CCC(F)(F)CC3)cccc2n1 (centres unmarked)	7.55
COC1CCCN(C(CNC(=O)c2cccc3ncccc23)c2cnc(C(F)(F)F)nc2)C1 (centres unmarked)	5.1
O=C(NCC(c1cnc(C(F)(F)F)nc1)N1CCCOCC1)c1cccc2ncccc12 (centres unmarked)	7.22
O=C(NCC(c1cnc(C(F)(F)F)nc1)N1CCCC(F)(F)C1)c1cccc2nc(NCCO)ccc12 (centres unmarked)	7.47
CC(C)Nc1ccc2c(C(=O)NCC(c3cnc(C(F)(F)F)nc3)N3CCC(F)(F)CC3)cccc2n1 (centres unmarked)	7.38
O=C(NCC(c1ccc(C(F)(F)F)nc1)N1CCC(F)(F)CC1)c1cccc2nc(N3CCOCC3)ccc12 (centres unmarked)	7.48

The next lines start with the values.

hP2RX7pIC50 (mean pIC50 values)	SMILES
7.28	CC(C)(C)OC(=O)N1CCN(c2ccc3c(C(=O)NCC(c4cnc(C(F)(F)F)nc4)N4CCCOCC4)cccc3n2)CC1 (centres unmarked)
6.99	O=C(NCC(c1cnc(C(F)(F)F)nc1)N1CCOCC1)c1cccc2nc(N3CC(O)C3)ccc12 (centres unmarked)
6.86	CC1CN(c2ccc3c(C(=O)NCC(c4cnc(C(F)(F)F)nc4)N4CCOCC4)cccc3n2)CC(C)O1 (centres unmarked)
7.19	O=C(NCC(c1cnc(C(F)(F)F)nc1)N1CCC(F)(F)CC1)c1cccc2nc(N3CCCCC3)ccc12 (centres unmarked)
7.29	O=C(NCC(c1cnc(C(F)(F)F)nc1)N1CCOCC1)c1cccc2nc(N3CCOCC3)ccc12 (single isomer, unassigned) [111]
7.23	CCN1CCN(c2ccc3c(C(=O)NCC(c4cnc(C(F)(F)F)nc4)N4CCOCC4)cccc3n2)CC1 (centres unmarked)
7.34	CCN1CCN(c2ccc3c(C(=O)NCC(c4cnc(C(F)(F)F)nc4)N4CCCOCC4)cccc3n2)CC1 (centres unmarked)
7.03	O=C(NCC(c1cnc(C(F)(F)F)nc1)N1CCOCC1)c1cccc2nc(NCC3CCCO3)ccc12 (centres unmarked)
6.76	O=C(NCC(c1cnc(C(F)(F)F)nc1)N1CCOCC1)c1cccc2nc(NC3CCOCC3)ccc12 (centres unmarked)
7.48	O=C(NCC(c1cnc(C(F)(F)F)nc1)N1CCCCCC1)c1cccc2nc(N3CCOCC3)ccc12 (centres unmarked)
7.45	CCN1CCN(c2ccc3c(C(=O)NCC(c4cnc(C(F)(F)F)nc4)N4CCC(F)(F)CC4)cccc3n2)CC1 (centres unmarked)
7.44	O=C(NCC(c1cnc(C(F)(F)F)nc1)N1CCC(F)(F)CC1)c1cccc2nc(N3CCN(CCO)CC3)ccc12 (centres unmarked)
7.02	O=C(NCC(c1cnc(C(F)(F)F)nc1)N1CCOCC1)c1cccc2nc(NCCO)ccc12 (centres unmarked)
7.53	O=C(NCC(c1cnc(C(F)(F)F)nc1)N1CCCC(F)(F)C1)c1cccc2nc(N3CCOCC3)ccc12 (centres unmarked)
7.06	O=C(NCC(c1cnc(C(F)(F)F)nc1)N1CCCOCC1)c1cccc2nc(N3CC(O)C3)ccc12 (centres unmarked)
7.52	O=C(NCC(c1cnc(C(F)(F)F)nc1)N1CCC(F)(F)CC1)c1cccc2nc(N3CCNCC3)ccc12 (centres unmarked) [Compound 78]
7.3	O=C(NCC(c1cnc(C(F)(F)F)nc1)N1CCOCC1)c1cccc2nc(N3CCOCC3)ccc12 (single isomer, unassigned) [110]
7.4	O=C(NCC(c1cnc(C(F)(F)F)nc1)N1CCC(F)(F)CC1)c1cccc2nc(N3CCCC3)ccc12 (centres unmarked)
7.23	O=C(NCC(c1cnc(C(F)(F)F)nc1)N1CCOCC1)c1cccc2nc(NCC(F)(F)F)ccc12 (centres unmarked)
7	O=C(NCC(c1cnc(C(F)(F)F)nc1)N1CCOCC1)c1cccc2nc(NCCCO)ccc12 (centres unmarked)
7.33	O=C(NCC(c1cnc(C(F)(F)F)nc1)N1CCOCC1)c1cccc2nc(N3CCOCC3)ccc12 (single isomer, unassigned) [80]
7.32	O=C(NCC(c1ccc(C(F)(F)F)nc1)N1CCOCC1)c1cccc2nc(N3CCOCC3)ccc12 (centres unmarked)
7.35	O=C(NCC(c1cnc(C(F)(F)F)nc1)N1CCOCC1)c1cccc2nc(NCC3CC3)ccc12 (centres unmarked)
7.3	CCNc1ccc2c(C(=O)NCC(c3cnc(C(F)(F)F)nc3)N3CCOCC3)cccc2n1 (centres unmarked)
7.38	O=C(NCC(c1cnc(C(F)(F)F)nc1)N1CCC(F)(F)CC1)c1cccc2nc(N3CCCOCC3)ccc12 (centres unmarked)
7.34	O=C(NCC(c1cnc(C(F)(F)F)nc1)N1CCOCC1)c1cccc2nc(Cl)ccc12 (centres unmarked)
